We go through one molecule from patent US20050215470A1 (Amgen, published 2005).

The target of this experiment is T1, human bradykinin B1 receptor (human, UniProt P46663 1-353).
T1 construct: whole, on cells; For the IC50 values the receptor was stably expressed in a CHO D-/hB1/Aequorin cell line; also called hB1
T1 sequence (looked up): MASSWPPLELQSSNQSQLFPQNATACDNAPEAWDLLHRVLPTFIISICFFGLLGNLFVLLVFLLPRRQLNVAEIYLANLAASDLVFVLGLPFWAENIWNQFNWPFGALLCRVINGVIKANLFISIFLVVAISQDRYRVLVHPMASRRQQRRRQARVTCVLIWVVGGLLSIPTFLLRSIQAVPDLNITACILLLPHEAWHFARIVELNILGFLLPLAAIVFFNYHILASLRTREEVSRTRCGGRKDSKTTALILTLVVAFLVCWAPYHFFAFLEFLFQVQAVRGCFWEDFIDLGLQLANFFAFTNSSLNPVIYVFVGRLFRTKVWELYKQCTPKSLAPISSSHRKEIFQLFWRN
Briefly: cell-based or functional assay.

Non-standard residues stand in square brackets, D forms with d. No end group written: not given here. Gly(cPent) = N[C@H](C(=O)O)C1CCCC1; Hyp = O=C(O)[C@@H]1C[C@@H](O)CN1; dTic = O=C(O)[C@H]1Cc2ccccc2CN1

Ac-KKRP[Hyp]G[Gly(cPent)]S[dTic][Gly(cPent)] [SEQ ID NO: 37] had an IC50 in the hB1 aequorin assay of 3.2 nM.
